Data reported in patent US8124332B2, “Methods of using sIP-10, CD26 inhibitors and CXCR3 levels in a sample to assess clearance of infection, response to interferon therapy, and treating chronic infections” (Institut Pasteur, priority 2006, dated 2012).

Columns and labels:
CXCR3+ cells = assay: In vivo bio-assay: circulating CXCR3+ cells in chronic HCV patient after first dose of peg-IFN-α2; parameters: species or system human; details: 6 hr post-injection; 35% pre-treatment
Text: (§1) As a second test for the inventors' hypothesis, the inventors have developed an ‘in vivo-bioassay’ to evaluate the fate of CXCR3^+ cells in individuals who have high levels of plasma CXCL10. To the inventors' knowledge, there is no report that evaluated in vivo migration as a function of plasma chemokine expression while taking care to determine that the chemokine is in a bioactive form. To establish a positive control for the assay, blood samples were collected from chronic HCV patients during the initiation of their treatment with peg-IFN-α2/RBV. 6 hr following the initial dose of peg-IFN-α2, the inventors observed high levels of plasma CXCL10, all of which existed in the agonist form, based on detection with anti-CXCL10, antisera L3 (FIG. 13A). […] Based on the enumeration of T cells and the selective decrease in CXCR3^+ cells (FIG. 13C), the interpretation is that the IFN treatment results in agonist CXCL10 production and migration of the CXCR3^+ cells.
(§2) FIG. 13. Establishment of an ‘in vivo bio-assay’ for agonist activity of plasma CXCL10. Plasma and whole blood was collected from an HCV chronic patient prior to initiation of treatment and six hours after the first dose of IFNα2. The plasma was analyzed by parallel sandwich ELISA for detection of total CXCL10 (black) and agonist CXCL10 (red) (A). […]

CXCL10 = assay: Plasma CXCL10 by parallel sandwich ELISA after first dose of peg-IFN-α2; format: in vivo, human; details: 6 hr following the initial dose; all in the agonist form
Text: as §1, §2

## peg-IFN-α2: pegylated interferon α2 given to chronic HCV patients
CXCR3+ cells
  level of circulating CXCR3+ cells: 2%
CXCL10
  plasma CXCL10: high levels
